# Results from US20250346585A1 (Alexion Pharmaceuticals, Inc., priority 2022, published 2025).
# By UniProt entry, the sequences of proteins in these tests, tags left out. Residues count along the entry.
# UniProt P09871, 438-688 limits assumed: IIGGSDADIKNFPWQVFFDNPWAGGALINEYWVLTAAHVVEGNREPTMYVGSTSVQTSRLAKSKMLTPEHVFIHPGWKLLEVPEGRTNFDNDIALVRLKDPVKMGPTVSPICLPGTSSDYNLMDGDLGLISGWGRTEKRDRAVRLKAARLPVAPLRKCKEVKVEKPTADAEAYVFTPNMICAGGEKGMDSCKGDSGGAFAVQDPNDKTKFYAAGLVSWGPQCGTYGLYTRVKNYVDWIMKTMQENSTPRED
# UniProt P09871, 16-437 partner limits assumed: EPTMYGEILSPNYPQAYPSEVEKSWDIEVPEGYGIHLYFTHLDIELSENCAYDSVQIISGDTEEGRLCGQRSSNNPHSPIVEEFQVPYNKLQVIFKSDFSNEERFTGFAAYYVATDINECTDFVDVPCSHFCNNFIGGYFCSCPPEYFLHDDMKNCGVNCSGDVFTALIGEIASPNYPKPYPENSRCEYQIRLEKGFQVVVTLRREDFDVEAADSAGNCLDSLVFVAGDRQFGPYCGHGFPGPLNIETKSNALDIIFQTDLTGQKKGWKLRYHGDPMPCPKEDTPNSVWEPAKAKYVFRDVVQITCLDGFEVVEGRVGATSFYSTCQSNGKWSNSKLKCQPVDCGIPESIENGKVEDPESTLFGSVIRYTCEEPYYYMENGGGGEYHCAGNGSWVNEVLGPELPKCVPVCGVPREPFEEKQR
# Where two headings read alike, the source gives them in different places.
# Target: Human complement C1s enzyme (Homo sapiens (Human), UniProt P09871)
# Experiment: Human C1s enzyme assay
# Assay type: biochemical
# Settings: read-out: IC50 (Stars)
# Method: Human complement C1s enzyme (purified from human serum, Complement Technology, Inc.) at 1.16 nM final concentration was incubated with test compound at various concentrations for 5 min at room temperature in 50 mM Tris, 1 M NaCl, pH 7.5. A synthetic substrate Z-L-Lys-SBzl and DTNB (Ellman's reagent) were added to final concentrations of 100 μM each. Absorbance at 405 nm (A405) was recorded at 30 second intervals for 30 min using a microplate spectrophotometer. IC50 values were calculated by nonlinear regression of complement C1s reaction rates as a function of test compound concentration.
Structure (SMILES),"IC50 (Human complement C1s enzyme 1.16 nM, substrate Z-L-Lys-SBzl 100 μM, assay of Example 3) [nM]",IC50 (Human C1s enzyme assay of Example 3) [nM]
C[C@@H](NC(=O)[C@@H]1C[C@](F)(Cn2ccnc2)CN1C(=O)CNC(=O)c1ccc2c(c1)-c1ccccc1C2(F)F)c1cc(C(=N)N)cs1,< 100,
C[C@@H](NC(=O)[C@@H]1C[C@](F)(COCCCCCCCC(=O)O)CN1C(=O)CNC(=O)c1ccc2c(c1)-c1ccccc1C2(F)F)c1cc(C(=N)N)cs1,,< 100
